Values of other authors, collected in US20260385999A1, “GUT MICROBE DERIVED AROMATIC AMINO ACID METABOLITES FOR DETECTION AND TREATMENT OF DISEASE” (published 2026).

System: platelet function and thrombosis potential
Conditions: previously reported

SMILES | Effect on platelet function and thrombosis potential
O=C(O)CNC(=O)Cc1ccccc1 | affect platelet function and thrombosis potential both in vitro and in vivo
Cc1ccc(O[C@@H]2O[C@H](C(=O)O)[C@@H](O)[C@H](O)[C@H]2O)cc1 | affect platelet function and thrombosis potential both in vitro and in vivo
NC(=O)CC[C@H](NC(=O)Cc1ccccc1)C(=O)O | affect platelet function and thrombosis potential both in vitro and in vivo
